Source: patent US10233241B2 (priority 2014, dated 2019)
Where two headings read alike, the source gives them in different places.

Protein sequences, listed by entry. Tags and fused reporters are not part of them. Lines headed by an entry give the natural chain unless they say otherwise; changes in a name come on top.
UniProt P42866: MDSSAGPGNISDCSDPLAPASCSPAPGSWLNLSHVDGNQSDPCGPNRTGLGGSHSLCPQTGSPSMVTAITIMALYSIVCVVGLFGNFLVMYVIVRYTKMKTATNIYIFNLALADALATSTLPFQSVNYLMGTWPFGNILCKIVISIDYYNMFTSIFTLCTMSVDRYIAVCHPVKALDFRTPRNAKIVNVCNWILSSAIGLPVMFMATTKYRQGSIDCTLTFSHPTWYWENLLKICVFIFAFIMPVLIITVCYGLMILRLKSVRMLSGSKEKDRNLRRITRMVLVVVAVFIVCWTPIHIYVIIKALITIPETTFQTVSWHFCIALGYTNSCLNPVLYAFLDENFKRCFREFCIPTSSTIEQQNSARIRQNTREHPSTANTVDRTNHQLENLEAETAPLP

What was measured:
Delta mMor1 [1] = target: T1, Delta mMor1 (Mus musculus, UniProt P42866, INS358LEVLFQGP/INS51ENLYFQ); assay: Radioligand competition assay of Dmt1-Dalda on Delta mMor1/Sf9 membranes pre-incubated with VHH; type: binding; design: expressed in transfected cells; host or cells: Sf9 insect cells, baculovirus-infected (BestBac)
Delta mMor1 [2] = target: T1, Delta mMor1; details: read-out: IC50, displacement of [3H]-diprenorphine; Delta mMor1/Sf9 membranes, 1 nM radioligand, 1 hour at room temperature

Dmt1-Dalda
IC50 (Delta mMor1 [1]; read-out: IC50 of Dmt1-Dalda in presence of XA8633, 1 nM [3H]-diprenorphine, 5 μM XA8633): 57 nM
IC50 (Delta mMor1 [1]; read-out: IC50 of Dmt1-Dalda in presence of mock VHH (CA4910), 1 nM [3H]-diprenorphine, mock VHH CA4910): 550 nM
IC50 (Delta mMor1 [2]): 511 nM
